The species entered for one test is Homo sapiens. Put plainly: Selectivity ratio of Ke for cloned human delta opioid receptor to Ke for cloned human kappa opioid receptor.
For test [1], the target named is Mu-type opioid receptor (Homo sapiens) (UniProt P35372). Put plainly: Ratio of JDTic Ke to compound Ke for cloned human mu opioid receptor assessed as inhibition of DAMGO-induced [35S]GTPgammaS binding. It is filed as functional.

The chains behind the UniProt entries cited, without tags or fusion partners.
UniProt P35372, whole entry: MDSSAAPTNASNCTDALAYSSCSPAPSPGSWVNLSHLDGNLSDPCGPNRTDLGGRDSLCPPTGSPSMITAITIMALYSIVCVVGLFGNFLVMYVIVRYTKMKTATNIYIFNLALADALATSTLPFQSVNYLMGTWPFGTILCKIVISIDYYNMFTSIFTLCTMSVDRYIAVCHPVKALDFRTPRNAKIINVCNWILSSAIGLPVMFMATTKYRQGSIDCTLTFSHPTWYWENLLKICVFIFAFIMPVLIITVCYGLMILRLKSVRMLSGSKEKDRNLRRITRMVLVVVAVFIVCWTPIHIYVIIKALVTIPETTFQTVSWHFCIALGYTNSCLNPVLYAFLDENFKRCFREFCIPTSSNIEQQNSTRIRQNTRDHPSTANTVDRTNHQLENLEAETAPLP

Each structure is given as a SMILES string.

On to `CC(C)[C@@H](CN1CC[C@@](C)(c2ccccc2)[C@@H](C)C1)NC(=O)[C@H]1Cc2ccc(O)cc2CN1`, for which the Ratio Ke in the test listed under Homo sapiens was found to be 18400.
As for `CC(C)[C@@H](CN1CCC(C)(c2cccc(F)c2)CC1)NC(=O)[C@H]1Cc2ccc(O)cc2CN1`, the Ratio Ke in the test listed under Homo sapiens came to 8210.
In the case of `CC(C)[C@@H](CN1CCC(c2cccc(F)c2)CC1)NC(=O)[C@H]1Cc2ccc(O)cc2CN1`, the results for the Ratio Ke (in test [1]; in the test listed under Homo sapiens) were 7 and 5600, respectively.
